Our source for the IC50 values is patent publication US20080293712A1, “Benzo[C][2,7]Naphtyridine Derivatives, Methods of Making Thereof and Methods of Use Thereof” (WYETH, priority 2007, published 2008).

The experiment concerns the target T1, PDK-1 (Homo sapiens, UniProt O15530).
T1 sequence (O15530 1-556): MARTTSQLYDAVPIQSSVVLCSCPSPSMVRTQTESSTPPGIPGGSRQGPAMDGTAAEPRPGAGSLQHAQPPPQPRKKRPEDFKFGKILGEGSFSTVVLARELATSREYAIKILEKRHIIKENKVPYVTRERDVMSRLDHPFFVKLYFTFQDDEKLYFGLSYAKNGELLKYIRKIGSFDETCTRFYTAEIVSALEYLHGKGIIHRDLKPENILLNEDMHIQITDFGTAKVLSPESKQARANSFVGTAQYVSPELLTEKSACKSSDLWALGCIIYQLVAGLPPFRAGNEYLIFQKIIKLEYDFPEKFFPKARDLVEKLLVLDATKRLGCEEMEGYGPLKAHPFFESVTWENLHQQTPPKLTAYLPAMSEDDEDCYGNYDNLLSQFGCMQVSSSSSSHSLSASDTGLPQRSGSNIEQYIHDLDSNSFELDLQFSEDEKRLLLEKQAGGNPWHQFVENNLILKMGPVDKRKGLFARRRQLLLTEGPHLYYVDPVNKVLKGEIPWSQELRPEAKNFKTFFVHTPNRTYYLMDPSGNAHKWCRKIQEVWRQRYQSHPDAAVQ
In words: PDK-1 kinase inhibition ELISA assay (phosphorylation of His6-tagged SGK1 S422D by PDK-1). It is filed as biochemical.

Regarding `COCCOc1cc2ncc3c(N)nc(-n4ccnc4)cc3c2cc1OC` [Ia-48, 2-(1H-imidazol-1-yl)-9-methoxy-8-(2-methoxyethoxy)benzo[c]-2,7-naphthyridin-4-amine], the IC50 was 70 nM. In other words, the double-digit nanomolar range.
